# Test results as given in PubChem BioAssay AID651719 (The Scripps Research Institute Molecular Screening Center, 2012).
# By UniProt entry, the sequences of proteins in these tests, tags left out. Where a name states a change or a piece, a line headed by the entry shows the natural chain unless it says otherwise.
# UniProt O60755: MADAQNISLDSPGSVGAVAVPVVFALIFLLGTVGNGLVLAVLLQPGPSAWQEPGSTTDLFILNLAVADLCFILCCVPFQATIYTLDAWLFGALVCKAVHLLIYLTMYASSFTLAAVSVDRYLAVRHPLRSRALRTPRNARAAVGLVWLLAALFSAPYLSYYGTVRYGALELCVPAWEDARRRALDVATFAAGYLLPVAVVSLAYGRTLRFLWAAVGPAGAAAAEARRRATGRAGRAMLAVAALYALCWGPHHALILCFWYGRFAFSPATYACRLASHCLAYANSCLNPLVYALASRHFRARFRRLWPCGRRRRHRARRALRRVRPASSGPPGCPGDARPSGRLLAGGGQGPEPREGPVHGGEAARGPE
# The entries are a selection whose mix differs from that of the whole data set. The source made the active and inactive calls.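 How the source made its calls: active means inhibition above the screen-wide average plus 3 SD (cut at about 13% in these data); inactive means the rest.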
# Molecular target: Galanin receptor type 3 (Homo sapiens) (UniProt O60755)
# Test: blockers of human galanin receptor 3 – cell-based, fluorescence readout, primary screen (AID 651719);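 further: forskolin and galanin both at EC90 stimulate the cells; cAMP rise reported by CNG channel membrane potential dye signal; 0% = forskolin plus galanin with DMSO and 100% = forskolin alone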
# Settings: HEK293 GalR3-CNG cAMP membrane potential fluorescence; at 3 µM; stronger effect = higher value; galR3 body fused to GalR1 C-terminus
row,Structure (SMILES),inhibition
1,CCc1cc(O)c([N+](=O)[O-])c(C)c1[N+](=O)[O-],inactive: -2.97%
2,CC(C)(C)C(=O)NC(Sc1ccccc1)C(Cl)(Cl)Cl (stereo not given),inactive: -2.66%
3,O=P1(Nc2nc3ccc(Cl)cc3s2)COc2ccccc2O1 (stereo not given),inactive: -4.24%
4,CCOc1ccc(C2=NCC(CBr)S2)cc1 (stereo not given),inactive: -7.46%
5,CC(=O)Nc1ccc([As](=O)(O)O)c(O)c1,inactive: -3.18%
6,CC(=O)Nc1ccc(Oc2c([N+](=O)[O-])cc([N+](=O)[O-])cc2[N+](=O)[O-])cc1,inactive: -4.19%
7,N#C/C(=C\c1ccc(N(CCBr)CCBr)cc1)C(N)=O,inactive: -4.3%
8,CC(=O)c1ccc(N2CC2c2ccncc2)cc1 (stereo not given),inactive: -7.45%
9,COC(=O)C1(C)COP(=O)(NCc2ccccc2)OC1 (stereo not given),inactive: 3.72%
10,Cc1ccccc1CN(C)C(=O)COC(=O)C(O)(c1ccccc1)c1ccccc1,inactive: -2.37%
11,C[C@@H]1C=CCP(=O)(Oc2ccccc2)O1 (stereo not given in full),inactive: 6.3%
12,C[C@H]1OP(=O)(Oc2ccccc2)C[C@@H]2O[C@@H]21 (stereo not given in full),inactive: -6.81%
13,O=P1(N(CCCl)CCCl)OCCC2CCCCN21 (stereo not given),inactive: -5.13%
14,O=C(NC1CCS(=O)(=O)C1)NP(=S)(Oc1ccccc1)Oc1ccccc1 (stereo not given),inactive: 4.78%
15,CCNC(=S)/N=C(\N)N[N+](=O)[O-],inactive: -6.92%
16,c1ccc(-c2nn[nH]n2)c(-c2nn[nH]n2)c1,inactive: -5.83%
17,Cc1ccc(NP(=O)(Oc2cccc(C)c2)Oc2cccc(C)c2)nc1,inactive: -1.01%
18,Cc1ccccc1OP(=O)(Nc1ccccn1)Oc1ccccc1C,inactive: 0.91%
19,CC(NC(=O)COC(=O)C(O)(c1ccccc1)c1ccccc1)c1ccccc1 (stereo not given),inactive: -6.43%
20,CN(C)C(=O)Oc1noc2ccccc12,inactive: -5.06%
21,O=c1c2cc([N+](=O)[O-])ccc2[nH]c2c([N+](=O)[O-])cc([N+](=O)[O-])cc12,inactive: -8.16%
22,COC(=O)c1cc2c(s1)N=C(c1ccccc1)N(C)P2(=O)N1CCOCC1 (stereo not given),inactive: 1.68%
23,Cc1ccc(OP(=O)(Nc2ccccn2)Oc2ccc(C)cc2)cc1,inactive: -2.75%
24,CC(=O)NC(SC(=S)N(CC(C)C)CC(C)C)C(Cl)(Cl)Cl (stereo not given),inactive: -1.91%

row,Structure (SMILES),inhibition
1,O=C(OC1CN2CCC1CC2)c1ccccc1 (stereo not given),inactive: -10.5%
2,CCC(=O)N1C2C3N(C(=O)CC)C1C1N(C(=O)CC)C(C(N1C(=O)CC)N3C(=O)CC)N2C(=O)CC,inactive: -1.54%
3,CCOP(=O)(Nc1ccccc1)OCC,inactive: -5.94%
4,Cc1cc(SC(NC(=O)c2ccc(F)cc2)C(Cl)(Cl)Cl)ncn1 (stereo not given),inactive: -4.27%
5,CN(C(=O)Cc1ccc(Cl)c(Cl)c1)[C@H]1CCCC[C@@H]1N1CCCC1,inactive: -6.08%
6,Cc1ccc(NP(=O)(Oc2ccccc2F)Oc2ccccc2F)nc1,inactive: -4.9%
7,CCn1c(=O)n(C2CCN(CC3CCCCCCC3)C[C@H]2CO)c2ccccc21 (stereo not given in full),inactive: -5.69%
8,O=C(O)c1ccccc1[As](=O)(O)O,inactive: -6.87%
9,CC(=O)Nc1ccc([As](=O)(O)O)cc1,inactive: -6.6%
10,CCCC1OP(N)(=O)OCC1CC (stereo not given),inactive: -7.11%
11,CN(C)P(=O)(N(C)C)n1c(Nc2ccccc2)nnc1-c1ccccc1,inactive: -4.63%
12,O=P(Nc1nc2ccc(Cl)cc2s1)(c1ccccc1)c1ccccc1,inactive: -5.96%
13,CN(C(=O)Cc1ccccc1)C1CC[C@@]2(CCCO2)C[C@@H]1N1CCCC1 (stereo not given in full),inactive: -2.46%
14,CCN(N=Nc1nonc1N)c1nonc1N,inactive: -3.21%
15,Nc1cccc2ccc([As](=O)(O)O)cc12,inactive: -11.5%
16,COc1ccccc1OP(=O)(Nc1ccc(C)cn1)Oc1ccccc1OC,inactive: -0.4%
17,Cc1ccc(OP(=O)(Nc2nccs2)Oc2ccc(C)cc2)cc1,inactive: -4.29%
18,Clc1ccc(Cl)c(NC2=NCC(CBr)S2)c1 (stereo not given),inactive: -2.01%
19,CN1CCCC(OC(=O)C(c2ccccc2)c2ccccc2)C1 (stereo not given),inactive: -5.82%
20,NC(=O)c1cc([N+](=O)[O-])cc([N+](=O)[O-])c1N,inactive: -3.53%
21,Cc1ccc(N/C(=N/P(=O)(N2CCOCC2)N2CCOCC2)N2CCOCC2)cc1,inactive: -3.51%
22,CC(C)CC(=O)NC(Sc1ccc(Cl)cc1)C(Cl)(Cl)Cl (stereo not given),inactive: -2.77%
23,Nc1cc(N)c2nonc2c1[N+](=O)[O-],inactive: -4.91%
24,Oc1ccccc1CNc1ccccn1,inactive: -3.97%

row,Structure (SMILES),inhibition
1,O=C(NC(Sc1ccncn1)C(Cl)(Cl)Cl)c1ccccc1 (stereo not given),inactive: 1.62%
2,CC(=O)N1C2C3N(C(C)=O)C1C1N(C(C)=O)C(C(N1C(C)=O)N3C(C)=O)N2C(C)=O,inactive: -1.98%
3,O=[N+]([O-])c1cccc2n[nH]nc12,inactive: 3.5%
4,Cc1ccc(NP(=O)(Oc2ccccc2)Oc2ccccc2)nc1,active: 15.6%
5,O=[N+]([O-])c1cc([N+](=O)[O-])c(CCNc2ccccc2)c([N+](=O)[O-])c1,inactive: 0.51%
6,CCc1nc2c(n1)c1c(non1O)c1c2no[n+]1[O-],active: 38.9%
7,COc1ccc(C2=NCC(CBr)S2)cc1 (stereo not given),inactive: -2.03%
8,CC(C)=N/N=C(\N)N[N+](=O)[O-],inactive: 3.42%
9,CC(C)c1nc(Nc2ccccc2)n(P(=O)(N(C)C)N(C)C)n1,inactive: -7.09%
10,CN(C)C(=O)OCCc1n(C)cc[n+]1C,inactive: -9.82%
11,c1cc(-c2nn[nH]n2)ccc1-c1nn[nH]n1,inactive: 5.4%
12,CC1CCN(C(=O)Oc2c(Cl)cc(Cl)c3cccnc23)CC1,inactive: -3.6%
13,Nc1ccc([As](=O)(O)c2ccc(N)cc2)cc1,inactive: -6.36%
14,C[N+]1=C2C=CC=CC=C2SC12C([N+](=O)[O-])=CC([N+](=O)[O-])=C[C-]2[N+](=O)[O-] (stereo not given),inactive: -1.81%
15,CCN(/C(=N/P(=O)(N1CCOCC1)N1CCOCC1)N1CCOCC1)c1ccc(OC)cc1,inactive: 1.64%
16,O=C(Nc1cc([As](=O)(O)O)ccc1O)c1ccccc1,inactive: -6.93%
17,O=P1(N(CCCl)CCCl)OCCCS1 (stereo not given),inactive: -7.19%
18,O=[N+]([O-])c1cccc(NC2=NCC(CBr)S2)c1 (stereo not given),inactive: 1.95%
19,COC(=O)C1(C)COP(=O)(Nc2ccccc2)OC1 (stereo not given),inactive: 1.08%
20,O=C(O)CNc1ccc([As](=O)(O)O)cc1,inactive: -6.84%
21,CC(C)(C)C(=O)NC(Sc1ccncn1)C(Cl)(Cl)Cl (stereo not given),inactive: -4.56%
22,O=[N+]([O-])c1ncn(CCn2ncnc2[N+](=O)[O-])n1,inactive: -3.69%
